Tests used:
[1] = system: patients with hemiplegia attributed to cerebrovascular disease (stroke) at Brunnstrom stage III or lower, not yet developing RSD; set-up: species or system human; details: in vivo
From the text: Test subjects were 32 patients with hemiplegia attributed to cerebrovascular disease (stroke) at Brunnstrom stage III or lower in either the upper limb or a finger on admission. Patients already developing RSD (shoulder-hand syndrome) on admission and patients with pain in the shoulder joint or swollen paralyzed limbs were excluded from the test. To 11 of these 32 test subjects, 20 units of elcatonin (Elcitonin Injection 20S; Asahi-Kasei Pharma; hereinafter, referred to as EL) were intramuscularly administered once a week immediately after admission (EL administration group). On the other hand, 21 test subjects were classified into a rehabilitation alone group (control group) and compared with the EL administration group. Physical therapy and therapeutic exercise, occupational therapy, and the management of the paralyzed limbs were performed thoroughly in all the cases. […] EL administration was initiated 11 to 59 days after an attack of stroke (25.8 days on average) and continued until 5 months after the attack of stroke. The same observation period was applied to the control group. […]
Activities of daily living (ADL) were evaluated on the basis of the Barthel Index (BI) and the range of motion (ROM) of shoulder joint. […]

[2] = in vivo

## 1-butyric acid-7-(L-2-aminobutyric acid)-26-L-aspartic acid-27-L-valine-29-L-alanine-calcitonin [elcatonin]
[1]
  Side effects during the test period: no significant or serious side effect was observed
[2]
  Intramuscular dose relative to drip infusion in vein needed for equal maximum serum concentration: approximately 1.5 times
